Compound activity from PubChem BioAssay.
In the library only some 1.8% were active in any assay of this set; here they are far more common.
SIRT5 block = inhibitors of human sirtuin-5 desuccinylase | Purified SirT5, succinyl-peptide AMC, trypsin-coupled fluorescence | inhibition, % at 15 µM | hit rate 1.1% among 330,000 | AID 652115; in the data active = inhibition above about 15%; inconclusive = no clear call, values can overlap the other calls
AF4-AF9 inh = MLL-AF4/AF9 protein interaction inhibition; P42568; AlphaScreen, biotin-AF4 peptide binding to FLAG-AF9; inhibition, % at 10 µM; hit rate 0.47% among 350,000; AID 651704;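 active = every replicate reaching a set inhibition limit, whatever the replicate mean, cut at about 25% in these data; inconclusive = mean inhibition reaches that limit but some replicates miss it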;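 also: 0% = plate neutral control median and 100% = total signal loss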
RAD54 branch = RAD54 (human) branch migration inhibition | inhibition, % at 10.4 µM | hit rate 0.14% among 360,000 | RAD54 Holliday junction branch migration, FAM/BHQ fluorescence;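 active = mean normalized replicate activity at least 40 and at least half of replicates scoring 40 or more; inconclusive = only one of the two criteria met; inactive = mean below 40 and under half of replicates reaching 40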;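 also: 0% = median of neutral control wells and 100% = median of positive control wells; inhibitors cause a drop in the FAM fluorescence signal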
RAD52 inh = blocks human RAD52 DNA annealing | hit rate 0.46% among 360,000 | inhibition, % at 18.7 µM | recombinant RAD52 DNA annealing, FRET fluorescence | AID 651710;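 active = every replicate showing at least 50% inhibition; inconclusive = mean inhibition at least 50% but not in every replicate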
E-selectin induc = E-selectin induction on HUVECs; P16581; HUVEC E-selectin immunofluorescence imaging; normalized: neutral wells 0, TNF-alpha wells 100; activation, % at 7.58 µM; hit rate 0.37% among 260,000;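 active = mean E-selectin-positive cell signal at least 10% of the positive control, reached in at least 60% of replicates, without over 20% cell loss; inconclusive = no rule given, readout overlaps actives, possibly toxicity-flagged; inactive = the rest, including those meeting only one limit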
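Assay system: HUVEC, human umbilical vein endothelial cells / Amount: 3,000 HUVEC/well / Controls: TNF-alpha positive control, DMSO neutral control / Compound dosing: single concentration / Medium: EGM-2 over gelatin coat / Evaluation: percent E-selectin-positive cells / Signal: immunofluorescence imaging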
UUG fidelity = alters start codon recognition fidelity in yeast | S. cerevisiae UUG-firefly luciferase reporter, luminescence/redox ratio | activity score, % at 18.7 µM | 350,000 compounds, 0.13% hits | AID 602363;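 active = replicate mean at a twofold rise or more, about +100% in these data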;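 note: firefly luciferase made from a UUG start codon reports start codon fidelity; reporter light over untreated wells divided by growth signal over untreated wells; some hits fall short of that in this replicate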
Active calls of the source: *; ? = inconclusive; / = no result given.

Labels used below – A = SIRT5 block; B = AF4-AF9 inh; C = RAD54 branch; D = RAD52 inh; E = E-selectin induc; F = UUG fidelity
1	COc1ccc(NC(=O)Nc2cccc3c2O[C@@H](CN(C)Cc2ccc(C(F)(F)F)cc2)[C@@H](C)CN([C@@H](C)CO)C3=O)cc1
  A: 2.0; B: 2.7; C: -4.2; D: 87.3*; E: -0.4; F: 13.0

2	COc1ccc(NC(=O)Nc2cccc3c2O[C@@H](CN(C)Cc2ccc(C(=O)Nc4ccccc4N)cc2)[C@@H](C)CN([C@H](C)CO)C3=O)cc1
  A: 3.7; B: -0.7; C: /; D: -10.2; E: -2.0; F: /

3	COc1ccc(NC(=O)Nc2cccc3c2O[C@@H](CN(C)Cc2ccc(C(F)(F)F)cc2)[C@@H](C)CN([C@H](C)CO)C3=O)cc1
  A: 21.4*; B: 1.0; C: 3.1; D: -0.5; E: -0.3; F: 1.1

4	COc1ccc(NC(=O)Nc2cccc3c2O[C@H](CN(C)Cc2ccc(C(=O)Nc4ccccc4N)cc2)[C@H](C)CN([C@H](C)CO)C3=O)cc1
  A: 3.3; B: 4.7; C: 4.5; D: -4.8; E: 33.5*; F: 10.3

5	COc1ccc(CN(C)C[C@H]2Oc3c(NC(=O)Nc4ccc(C(F)(F)F)cc4)cccc3C(=O)N([C@H](C)CO)C[C@H]2C)cc1
  A: 3.8; B: 9.5; C: -19.5; D: 4.8; E: 0.0; F: 0.9

6	C[C@H]1CN([C@@H](C)CO)C(=O)Cc2cc(N(C)C)ccc2O[C@H]1CN(C)C(=O)Nc1ccc(F)cc1
  A: 0.0; B: -1.2; C: /; D: -0.5; E: -3.8; F: /

7	CCCNC(=O)Nc1ccc2c(c1)OC[C@@H](C)N(C(=O)C1CC1)C[C@H](C)[C@@H](OC)CN(C)C2=O
  A: -0.9; B: 1.5; C: -4.2; D: 14.1; E: 0.3; F: 2.8

8	Cn1cnc2c(N/N=C/c3cccs3)ncnc21
  A: 15.1*; B: 1.7; C: 8.4; D: -14.8; E: /; F: -30.7

9	C(=N\Nc1ncnc2sc3c(c12)CCC3)/c1cccs1
  A: /; B: /; C: 4.6; D: /; E: /; F: -20.9

10	CCCC(=O)N1CC2(C1)CN(S(C)(=O)=O)[C@H](CO)c1c2c2ccc(OC)cc2n1C
  A: -3.9; B: 1.6; C: /; D: 1.4; E: -0.4; F: /

(more compounds)
Labels used below – A = SIRT5 block; B = AF4-AF9 inh; C = RAD54 branch; D = RAD52 inh; E = E-selectin induc; F = UUG fidelity
11	C[C@H](CO)N1C[C@H](C)[C@H](CN(C)C(=O)CCCN(C)C)OCCCC[C@H](C)Oc2ccc(NC(=O)Nc3ccc(F)cc3)cc2C1=O
  A: -5.3; B: 5.4; C: 4.6; D: 23.9; E: 0.8; F: 7.0

12	C[C@@H]1CCCCO[C@H](CN(C)C(=O)CCCN(C)C)[C@@H](C)CN([C@@H](C)CO)C(=O)c2cc(NC(=O)Nc3cccc4ccccc34)ccc2O1
  A: 17.6*; B: 17.9; C: 11.2; D: 43.2; E: -0.3; F: 14.6

13	C[C@@H]1CN([C@@H](C)CO)C(=O)c2cc(NC(=O)Nc3ccc(F)cc3)ccc2O[C@@H](C)CCCCO[C@H]1CN(C)C(=O)CCCN(C)C
  A: 2.3; B: -3.6; C: 8.6; D: 51.1*; E: -0.1; F: 36.5

14	O=C(c1ccc2nc(-c3ccco3)c(-c3ccco3)nc2c1)N1CCN(c2ccccc2)CC1
  A: /; B: /; C: 2.2; D: /; E: /; F: 4.6

15	O=C(O)c1ccc2nc(-c3ccco3)c(-c3ccco3)nc2c1
  A: 21.9*; B: -6.9; C: -1.1; D: -18.1; E: /; F: -2.8

16	COc1ccccc1C#Cc1ccc2c(c1)O[C@H](CN(C)C(C)=O)[C@H](C)CN([C@H](C)CO)S2(=O)=O
  A: -24.7; B: 1.8; C: 5.1; D: 9.2; E: -0.2; F: 31.0

17	CC(=O)Nc1ccc(NC(=O)C(C)n2nc(C)c([N+](=O)[O-])c2C)cc1 (stereo not given)
  A: 27.5*; B: 2.9; C: 0.3; D: -6.7; E: -0.8; F: -9.4

18	C[C@@H]1CCCCO[C@@H](CN(C)C)[C@@H](C)CN([C@H](C)CO)C(=O)c2cc(NS(C)(=O)=O)ccc2O1
  A: -3.7; B: 2.1; C: 5.3; D: 0.1; E: -0.3; F: -15.2

19	CS(=O)(=O)Nc1cccc(NC(=O)c2cccc3c(-c4ccc(F)c(F)c4)coc23)c1
  A: 15.1*; B: -1.1; C: -1.1; D: 15.1; E: ?; F: -8.4

20	O=[N+]([O-])c1cc(Cl)c(O)c2ncccc12
  A: 7.8; B: -0.3; C: /; D: -16.0; E: 0.1; F: /

Next part:
Labels used below – A = SIRT5 block; B = AF4-AF9 inh; C = RAD54 branch; D = RAD52 inh; E = E-selectin induc; F = UUG fidelity
21	O=[N+]([O-])c1cc(Cl)c2cccnc2c1O
  A: 16.6*; B: -0.2; C: /; D: -25.5; E: -0.1; F: /

22	CCN1[C@@H]2Cn3c(ccc(C4=CCCCC4)c3=O)[C@H]1[C@@H](C(=O)NC1Cc3ccccc3C1)[C@@H]2CO
  A: -15.6; B: 1.0; C: /; D: -11.5; E: 1.6; F: /

23	COc1ccc(S(=O)(=O)N(C)C[C@@H]2Oc3ccc(NS(=O)(=O)c4ccc(C)cc4)cc3CC(=O)N([C@H](C)CO)C[C@H]2C)cc1
  A: /; B: /; C: 5.1; D: /; E: -0.6; F: 14.1

24	COc1ccc(C(NC(=O)C2CCN(CCc3ccccc3)CC2)c2ccccn2)cc1 (stereo not given)
  A: 15.2*; B: -0.2; C: -4.6; D: -27.9; E: 0.1; F: -10.9

25	COc1ccc(C(NC(=O)C2CCN(CCCc3ccccc3)CC2)c2ccccn2)cc1 (stereo not given)
  A: /; B: /; C: -3.5; D: /; E: /; F: -19.5

26	COc1ccc(NC(=O)N(C)C[C@H]2OCCCC[C@@H](C)Oc3ccc(NC(=O)C4CCCCC4)cc3C(=O)N([C@@H](C)CO)C[C@H]2C)cc1
  A: -5.1; B: 0.3; C: -3.0; D: -13.7; E: -0.1; F: 15.9

27	CCCSc1nnc(NC(=O)CSc2sc3c(O)cc(=O)[nH]c3c2C#N)s1
  A: 26.1*; B: -1.0; C: 2.7; D: -78.2; E: /; F: -8.4

28	N#Cc1c(SCC(=O)Nc2nc3ccccc3s2)sc2c(O)cc(=O)[nH]c12
  A: 11.9; B: -0.5; C: -5.0; D: -77.8; E: 1.0; F: -9.4

29	N#Cc1c(SCC(=O)Nc2nccs2)sc2c(O)cc(=O)[nH]c12
  A: 25.6*; B: -1.0; C: -19.7; D: -79.3; E: 0.2; F: -21.3

30	Cc1ccc(S(=O)(=O)Nc2ccc3c(c2)C(=O)N([C@@H](C)CO)C[C@@H](C)[C@H](CN(C)C(=O)Nc2c(C)noc2C)O3)cc1
  A: -3.3; B: -0.2; C: 2.4; D: -11.0; E: 0.0; F: -7.9

Carrying on.
Labels used below – A = SIRT5 block; B = AF4-AF9 inh; C = RAD54 branch; D = RAD52 inh; E = E-selectin induc; F = UUG fidelity
31	C[C@@H]1CN([C@@H](C)CO)C(=O)c2cc(NC(=O)Nc3cccc4ccccc34)ccc2O[C@@H]1CN(C)Cc1ccc2c(c1)OCO2
  A: -1.2; B: -0.8; C: 23.7; D: 17.9; E: /; F: 34.4

32	C[C@H]1CN([C@@H](C)CO)C(=O)Cc2cc(NC(=O)Nc3cccc4ccccc34)ccc2O[C@H]1CN(C)Cc1ccc2c(c1)OCO2
  A: 6.9; B: 0.0; C: 14.6; D: 22.7; E: /; F: 3.8

33	C[C@@H]1CN([C@H](C)CO)C(=O)Cc2cc(NC(=O)C3CC3)ccc2O[C@@H]1CN(C)Cc1ccc2c(c1)OCO2
  A: -17.1; B: -1.9; C: -1.1; D: 0.7; E: 28.9*; F: -5.5

34	C[C@H](CO)N1C[C@H](C)[C@@H](CN(C)Cc2ccc3c(c2)OCO3)Oc2ccc(NC(=O)Nc3cccc4ccccc34)cc2CC1=O
  A: 3.3; B: 7.1; C: 29.9; D: 54.7*; E: /; F: 17.7

35	C[C@H]1CN([C@@H](C)CO)C(=O)Cc2cc(NC(=O)Nc3cccc4ccccc34)ccc2O[C@H]1CN(C)Cc1ccc(Cl)c(Cl)c1
  A: 15.4*; B: -0.1; C: -9.4; D: 0.3; E: -1.2; F: -10.2

36	C[C@H]1CN([C@@H](C)CO)C(=O)Cc2cc(NC(=O)C3CC3)ccc2O[C@H]1CN(C)Cc1ccc2c(c1)OCO2
  A: -1.0; B: -3.1; C: 14.1; D: 6.5; E: -12.3; F: -2.9

37	C[C@@H]1CN([C@H](C)CO)C(=O)c2cc(NC(=O)Nc3cccc4ccccc34)ccc2O[C@@H]1CN(C)Cc1ccc2c(c1)OCO2
  A: 15.1*; B: -1.9; C: 11.6; D: 23.0; E: /; F: 3.4

Quoted from above, nos. 36–37
Labels used below – A = SIRT5 block; B = AF4-AF9 inh; C = RAD54 branch; D = RAD52 inh; E = E-selectin induc; F = UUG fidelity
36	C[C@H]1CN([C@@H](C)CO)C(=O)Cc2cc(NC(=O)C3CC3)ccc2O[C@H]1CN(C)Cc1ccc2c(c1)OCO2
  A: -1.0; B: -3.1; C: 14.1; D: 6.5; E: -12.3; F: -2.9

37	C[C@@H]1CN([C@H](C)CO)C(=O)c2cc(NC(=O)Nc3cccc4ccccc34)ccc2O[C@@H]1CN(C)Cc1ccc2c(c1)OCO2
  A: 15.1*; B: -1.9; C: 11.6; D: 23.0; E: /; F: 3.4
